Literature values in patent publication EP2322149A1, “Methods and compositions for the treatment of ischemia” (Universidad del Pais Vasco, priority 2009, dated 2011).
Counter-ions that a name gives are not always drawn.

Target: T1, P2X4 (Homo sapiens, UniProt Q99571)
T1 sequence (Q99571 1-388): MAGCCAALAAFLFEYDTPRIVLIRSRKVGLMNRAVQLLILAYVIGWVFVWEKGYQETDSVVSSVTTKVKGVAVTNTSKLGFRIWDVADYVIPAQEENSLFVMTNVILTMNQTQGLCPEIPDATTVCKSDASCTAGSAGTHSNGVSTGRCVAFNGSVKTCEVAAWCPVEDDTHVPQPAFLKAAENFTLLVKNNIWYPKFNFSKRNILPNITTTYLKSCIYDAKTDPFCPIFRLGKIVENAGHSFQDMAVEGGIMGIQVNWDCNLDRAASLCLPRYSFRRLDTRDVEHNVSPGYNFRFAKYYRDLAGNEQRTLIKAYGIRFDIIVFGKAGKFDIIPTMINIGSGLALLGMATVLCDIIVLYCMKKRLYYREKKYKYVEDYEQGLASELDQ
Conditions: cited from earlier work

For Nc1ncnc2c1ncn2[C@@H]1O[C@H](COP(=O)(O)OP(=O)(O)OP(=O)(O)O)[C@H]2OC3(O[C@H]21)C([N+](=O)[O-])=CC(=[N+]([O-])[O-])C=C3[N+](=O)[O-] (stereo partly shown) [TNP-ATP, monolithium salt of 2',3'-O-2,4,6-trinitrophenyl-adenosine 5'-triphosphate], the IC50 is given as 15 µM.
